## Apparent affinities of Ab-14 variants for a coronavirus HR2 peptide

Target: peptide PDVDLGDISGINAS, taken from heptad repeat 2 (HR2) of SARS-CoV-2 spike.

Parent scFv Ab-14: VH joined to VL by the linker GGGGSGGGGSGGGGS. Changes lie in the heavy chain CDRs alone.
VH: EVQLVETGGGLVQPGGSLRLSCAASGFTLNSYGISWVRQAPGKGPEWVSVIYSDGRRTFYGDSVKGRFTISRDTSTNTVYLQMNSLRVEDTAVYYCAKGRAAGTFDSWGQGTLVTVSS
VL: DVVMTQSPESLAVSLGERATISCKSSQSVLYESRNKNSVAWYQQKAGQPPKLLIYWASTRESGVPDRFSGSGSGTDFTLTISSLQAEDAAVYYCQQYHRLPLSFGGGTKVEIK

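In library AAYL49, one, two or three CDR residues were substituted; doubles and triples were drawn at random. The scFvs were displayed on barcoded MATa yeast, the peptide on MATalpha yeast. After mating in shaken culture at 30 °C for 16 h, diploids were selected and their barcode pairs sequenced. Scores were corrected for input abundance and mapped to Kd with protein pairs of known affinity run in the same pool. Each pool was mated in three replicate cultures.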

Changes read parent residue, position, new residue, counted from the first residue of the VH shown. All variants listed here change I51 of the VH, counted from its first residue. Kd is apparent (estimated from mating counts) and averaged on the log scale over replicates with a signal. Smaller is tighter. "no signal" means that the variant was in the library but no mating with the target was seen in any replicate; the authors take this as a sign of poor binding, and no number exists. Nonspecific signal, from three strains lacking the peptide, appeared in 15% of pairings of library AAYL49, centred on 11 µM (5% of these signals below 680 nM); values are not corrected for it.

With I51L G103W T104H the result was 91 µM (1 of 3 replicates).
With I51V K65M D106P the result was 5.1 µM (2 of 3 replicates).
With I51N T58G R100M the result was no signal (0 of 3 replicates).
With I51K D54T V64C the result was 85 µM (1 of 3 replicates).
With I51R T58E D62W the result was no signal (0 of 3 replicates).
With I34Y I51N V64M the result was no signal (0 of 3 replicates).
With G33C I51S Y60H the result was no signal (0 of 3 replicates).
With V50S I51G Y52R the result was 7.4 µM (1 of 3 replicates).
With G33R I51Y R56D the result was 9.0 µM (2 of 3 replicates).
With G26D I51C A101N the result was 100 µM (1 of 3 replicates).
With I34C I51G the result was 44 µM (2 of 3 replicates).
With S31D I51C A101S the result was no signal (0 of 3 replicates).
With I51L Y60P G99T the result was 300 µM (3 of 3 replicates).
With Y32V V50D I51G the result was 990 nM (1 of 3 replicates).
With I51N Y60H V64S the result was no signal (0 of 3 replicates).
With I34G I51G A102F the result was no signal (0 of 3 replicates).
With G33M I51A Y52P the result was no signal (0 of 3 replicates).
With N30R V50E I51F the result was no signal (0 of 3 replicates).
With V50T I51M T104C the result was no signal (0 of 3 replicates).
With I51W K65A the result was 73 µM (2 of 3 replicates).
With I51K G55A T58I the result was 1.3 µM (1 of 3 replicates).
With I51H S107V the result was 8.0 µM (2 of 3 replicates).
With I51H D54P D62M the result was no signal (0 of 3 replicates).
With G33V I51S S63C the result was no signal (0 of 3 replicates).
With I51C F59L A101S the result was 550 µM (1 of 3 replicates).
With I51H K65S F105E the result was no signal (0 of 3 replicates).
With I51F G55L A102M the result was no signal (0 of 3 replicates).
With I51C Y52A G61N the result was 67 µM (1 of 3 replicates).
With I51C R57I A102Q the result was 190 µM (2 of 3 replicates).
With I51T R57Q V64N the result was 48 µM (2 of 3 replicates).

Extract of 3 entries:

changes	Kd (apparent)	detected
I51K D54T V64C	85 µM	1 of 3
I34C I51G	44 µM	2 of 3
I51T R57Q V64N	48 µM	2 of 3

From the AlphaSeq antibody data of Engelhart et al. 2022 (doi:10.1038/s41597-022-01779-4), copy in the FLAb collection.